In ChEMBL document CHEMBL4041473, “Identification of novel microsomal prostaglandin E2 synthase-1 (mPGES-1) lead inhibitors from Fragment Virtual Screening” (Eur J Med Chem, 2017):

Target: T1, Prostaglandin E synthase (Homo sapiens) (UniProt O14684)
T1 sequence (whole entry): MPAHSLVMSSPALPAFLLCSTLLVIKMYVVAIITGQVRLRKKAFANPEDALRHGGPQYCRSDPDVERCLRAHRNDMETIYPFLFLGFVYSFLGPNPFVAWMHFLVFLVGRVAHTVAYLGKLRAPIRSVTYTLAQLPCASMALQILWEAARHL
Test: Inhibition of mPGES-1 in microsomes isolated from IL-1beta-stimulated human A549 cells at 10 uM using PGH2 as substrate preincubated for 15 mins followed by substrate addition measured after 1 min by RP-HPLC method relative to control
Type: cell-free
In short: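 mPGES-1 source: microsomes of A549 cells stimulated 48 h with IL-1β (1 ng/ml), sonicated, spun 10,000×g 10 min then 174,000×g 1 h at 4 °C. Diluted in 0.1 M potassium phosphate pH 7.4 with 2.5 mM glutathione. Compound or DMSO vehicle added 15 min at 4 °C, then 20 µM PGH2 for 1 min at 4 °C. Stopped with FeCl2/citric acid plus 11β-PGE2. PGE2 measured by solid-phase extraction and RP-HPLC.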

`O=[N+]([O-])c1nonc1-c1nonc1[N+](=O)[O-]` was tested. Which inhibition did it give?
Its inhibition is 20%.
